Data: the supplement of paper PMC9103864

Columns and labels:
[1] = system: BMSC (primary human bone marrow mesenchymal stromal cells); experiment: absolute EC50 for viability; higher = less sensitive
[2] = system: BMSC (primary human bone marrow mesenchymal stromal cells); experiment: drug sensitivity score (DSS); higher = more sensitive

NCc1ccc(OCCCc2sc(-c3ccc4c(c3)/C(=N/Nc3nc5ccccc5s3)CCC4)nc2C(=O)O)cc1 [WEHI-539]
absolute EC50 for viability [1]: > 2500 nM | drug sensitivity score [2]: 0
